Source: patent US6451801B1, “Compounds and methods for treatment of asthma, allergy and inflammatory disorders” (UCB, S.A., priority 1999, dated 2002)

By UniProt entry, the sequences of proteins in these tests, tags left out.
UniProt P35367, whole entry: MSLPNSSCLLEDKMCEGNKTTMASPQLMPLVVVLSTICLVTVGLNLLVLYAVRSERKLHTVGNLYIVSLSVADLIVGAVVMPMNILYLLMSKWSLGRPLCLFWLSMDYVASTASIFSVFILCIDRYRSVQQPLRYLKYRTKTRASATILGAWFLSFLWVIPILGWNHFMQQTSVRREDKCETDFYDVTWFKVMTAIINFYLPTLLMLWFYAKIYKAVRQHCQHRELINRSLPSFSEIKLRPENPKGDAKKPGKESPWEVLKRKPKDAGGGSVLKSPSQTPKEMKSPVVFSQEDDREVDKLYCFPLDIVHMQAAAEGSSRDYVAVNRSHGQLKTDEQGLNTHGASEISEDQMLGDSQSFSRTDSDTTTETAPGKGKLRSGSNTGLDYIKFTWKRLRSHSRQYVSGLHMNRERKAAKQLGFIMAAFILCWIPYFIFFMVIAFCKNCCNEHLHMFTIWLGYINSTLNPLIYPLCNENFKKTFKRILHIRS

These compounds were tested against T1, human cloned H1 receptor (Homo sapiens, UniProt P35367) (assay: CHO-K1 H1R binding assay). Conditions: 3H-pyrilamine 2 nM, CHO-K1 membranes, 3 hours at 37° C.; read-out: CHOH1 K1.
T1 construct: expressed in transfected cells; host or cells: CHO-K1
Procedure: This assay is commonly used to measure the ability of a compound to act as a histamine H1 receptor binding ligand. As this assay employs human cloned H1 receptors it can provide a good approximation of what can be expected when a compound is administered to humans.
Details of the assay procedure are as follows. CHO-K1 cells expressing the human cloned H1 receptor are grown to confluence in tissue culture dishes. Cells are harvested using D-PBS buffer (JRH Biosciences), kept at 4° C., centrifuging to pellet cells (4° C., 500 g, 10 min). The final cell pellet is homogenized and resuspended using Tris/sucrose buffer (20 mM Tris, 250 mM sucrose, pH 7.4 at 4° C.). Aliquots of the membrane preparation are stored at −70° C.
On the day of assay, the membrane preparation is thawed and centrifuged (TLA100.3 rotor, 4° C., 15 min, 23,000 rpm). The pellet is resuspended in Tris/sucrose buffer initially and then diluted further as necessary using assay buffer A (50 mM Na/KPO4, 2 mM MgCl2, 0.5% (w/v) BSA, pH 7.5).
For the binding assay, the membrane preparation, test compound and ^3H-pyrilamine (2 nM final) in buffer A with 1% (v/v) DMSO final are incubated in a 96-well polypropylene plate for 3 hours at 37° C. Non-specific binding is determined in the presence of 10 μM pyrilamine. A 96-well harvester (Packard) is used to harvest the 96-well plate onto a GF/B filter plate pre-treated with 0.1% (v/v) PEI. The plate is counted in a Packard Topcounter after adding Microscint 20 (Packard) scintillation fluid. The Ki for each compound at the histamine H1 receptor is then calculated from these counts.
For `NC(=O)N(O)CCC#Cc1ccc(OCCN2CCN([C@H](c3ccccc3)c3ccc(Cl)cc3)CC2)cc1` [Compound 12, N-{4-[4-(2-{4-[(1R) (4-chlorophenyl)phenylmethyl]piperazinyl}ethoxy)phenyl]but-3-ynyl} amino-N-hydroxyamide], the Ki was 380 nM.
`NC(=O)N(O)CCC#Cc1ccc(OCCN2CCC(=C3c4ccc(Cl)cc4CCc4cccnc43)CC2)cc1` [Compound 32] was tested, and the Ki was 7 nM.
`NC(=O)N(O)CCC#Cc1ccc(OCCCN2CCN([C@H](c3ccccc3)c3ccc(Cl)cc3)CC2)cc1` [Compound 52, N-{4-[4-(3-{4-[(1R)(4-chlorophenyl)phenyl-methyl]piperazinyt}propoxy)phenyl]but-3-ynyl}amino-N-hydroxyamide] gave a Ki of 6 nM.
`NC(=O)N(O)CCC#Cc1ccc(OCCCCN2CCN(C(c3ccc(F)cc3)c3ccc(F)cc3)CC2)cc1` [Compound 80, amino-N-{4-[4-(4-{4-[bis(4-fluorophenyl)methyl]piperazinyl}butoxy)phenyl]but-3-ynyl}-N-hydroxyamide] showed a Ki of 27 nM.
